# Yeast mating assay 1: variants of the scFv Ab-14

From the AlphaSeq antibody data of Engelhart et al. 2022 (doi:10.1038/s41597-022-01779-4), copy in the FLAb collection.

Target: peptide PDVDLGDISGINAS, taken from heptad repeat 2 (HR2) of SARS-CoV-2 spike.

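The starting antibody came from a phage panning campaign against this peptide. Variants in AAYL50 differ from the parent at up to three CDR positions; double and triple changes were sampled at random. Affinity was read by AlphaSeq, a pooled yeast mating assay with surface-displayed partners. After mating in shaken culture at 30 °C for 16 h, diploids were selected and their barcode pairs sequenced. Read counts were normalised to the haploid input and turned into Kd by a linear fit to BCL2-family pairs of known affinity, for each replicate. Each pool was mated in three replicate cultures.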

Ab-14 is the parent antibody, in scFv form: VH, then a 15-residue (Gly4Ser)3 linker, then VL. The heavy chain is unchanged in all variants.
VH: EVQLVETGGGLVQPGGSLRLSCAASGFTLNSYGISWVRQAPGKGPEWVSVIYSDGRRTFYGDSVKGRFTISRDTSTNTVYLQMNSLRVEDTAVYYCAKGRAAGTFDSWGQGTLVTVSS
VL: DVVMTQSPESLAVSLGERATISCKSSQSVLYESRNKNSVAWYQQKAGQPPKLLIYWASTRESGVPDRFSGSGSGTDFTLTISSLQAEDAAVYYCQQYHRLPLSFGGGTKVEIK

Each variant is given by its three light chain CDRs, as the data file delimits them; those of the parent are KSSQSVLYESRNKNSVA, WASTRES, QQYHRLPLS.
The Kd shown is the geometric mean over detected replicates; a lower Kd is a better binder.
Where no diploid with the target was found in any replicate, the entry reads "nd": below detection, most likely a poor binder, though not proof of it.
For reference, the parent read 4.4 nM as the reference entry and 48 nM as a member of this library.
Background: pairings of library AAYL50 with three empty control strains gave a value in 18% of cases (median 15 µM, 5th percentile 970 nM). Values in that range, when seen in few replicates, are hard to tell from nonspecific mating.

| Kd (apparent) | seen in | CDR-L1 | CDR-L2 | CDR-L3 |
|---|---|---|---|---|
| 2.3 µM | 2 of 3 | KSSQSALYESRNKNSVA | WASTPES | QQYHRLRLS |
| 310 nM | 3 of 3 | KSSQSVLYESRNKNSVA | VASTREP | QQYHRLPLI |
| nd | 0 of 3 | KSSQSVLYESRNKNSVK | WNSTRES | QEYHRLPLS |
| 5.7 µM | 1 of 3 | KSSQSVLYESRNSNPVA | WASTRES | QQYHRLNLS |
| 3.9 nM | 3 of 3 | KSSQSVAYESRNKNSVA | WASTREA | QQYHRLPLS |
| 250 nM | 3 of 3 | KSSQSVRYESRNKNSVA | WASTRES | QQYHRLPLM |
| nd | 0 of 3 | KSSQSVLYESINKNSVC | WASTRES | QQWHRLPLS |
| 15 nM | 3 of 3 | KSSQSVLYESRNKNSVA | WASTMES | QDYERLPLS |
| 80 nM | 3 of 3 | KSSQSELYMSRNKNSVA | WASTRES | QQYHRLPLK |
| nd | 0 of 3 | KSSQSVLYESRNCNSCA | WASTRES | QQYHRLPLS |
| 170 µM | 1 of 3 | KSSQYVLYESRNKRSVA | WASTRES | QQYHRLYLS |
| 140 µM | 2 of 3 | KSSQSVLYESRNKNSVA | WASTRES | QNYYRLPRS |
| 18 nM | 3 of 3 | KSSQSVLYESNNKNSVA | WASTRES | QCYHRLALS |
| 1.6 µM | 3 of 3 | KSTQSVLYESRNKNSVA | WASTRES | QQYHRLPLK |
| 21 µM | 1 of 3 | KSSQSVLYESENKNSVA | WASTRES | QQYHDEPLS |
| 26 nM | 3 of 3 | KSSRSVLYESRNKNSVA | YASTRES | QQYPRLPLS |
| nd | 0 of 3 | KSSQSVLTESTNKNSVA | WASTRES | QGYHRLPLS |
| nd | 0 of 3 | KSSISVLYESRNKNSVA | WESTRES | QQYHRLPLC |
| 100 nM | 3 of 3 | KSSQYVLYESRNDNSVA | NASTRES | QQYHRLPLS |
| 1.5 µM | 1 of 3 | KSSQSVYYESRNKNSVA | WLSTRES | QQYHVLPLS |
| 340 nM | 3 of 3 | DSSQSVLYESRNKNSVA | WAHTRES | QQYHRLPLS |
| nd | 0 of 3 | KSAQSVLYESRNKNSVA | WASTRED | QWYHRLPLS |
| nd | 0 of 3 | KSSQSVLYENRNPNSVA | WASTRES | QQEHRLPLS |
| nd | 0 of 3 | KSSQSVLYISRNKNSVA | WFQTRES | QQYHRLPLS |
| 2.4 µM | 1 of 3 | KSEQSVLYESRNKNSVA | WASTQEI | QQYHRLPLS |
| 1.9 µM | 1 of 3 | KSSQSVLYESRNKNSVQ | WASTRES | QDYHDLPLS |
| nd | 0 of 3 | KKSQCVLYESRNKNSVA | WASTRES | QQYHRLPLC |
| nd | 0 of 3 | KSSQSVHYSSRNKNSVY | WASTRES | QQYHRLPLS |
| 9.6 µM | 2 of 3 | KSSQSVLYSSRNHNSWA | WASTRES | QQYHRLPLS |
| nd | 0 of 3 | KSSQSVLYEHRNKNSVA | WASTRVS | QQYHRLPLY |
| nd | 0 of 3 | KSSQSVLYCSRNKNSVA | EASTRES | QQKHRLPLS |
| nd | 0 of 3 | KSSQSVLYESRNKNSVA | WASTRES | QNGQRLPLS |
| 240 nM | 3 of 3 | KSSQSVLYESRNKNCVA | WANTRES | QQYHRLPFS |
| 930 µM | 2 of 3 | KESQYVLYESRNKNSVA | WASTRES | QQMHRLPLS |
| 59 nM | 3 of 3 | KSSQSVLSESRNKNPVA | WASTRES | QQYHRLPLM |
| 44 nM | 3 of 3 | TSSQSVLYEYRNKNSVA | WASTRES | QQYERLPLS |
| nd | 0 of 3 | KSSQSVLLESRNKNSVA | WASWRES | QQYHRTPLS |
| 15 nM | 3 of 3 | KSSQSVLYESRNKNSLA | WASTREI | QQYHWLPLS |
| nd | 0 of 3 | KSSQSVLYESRNKNQVA | WASNREW | QQYHRLPLS |
| 2.3 nM | 3 of 3 | KSSQSVTYESSNVNSVA | WASTRES | QQYHRLPLS |
| 3.8 µM | 2 of 3 | PSSDSVLYESRNKNSVA | WASCRES | QQYHRLPLS |
| 56 µM | 2 of 3 | KSSQSVLYESRNKQSVI | WAETRES | QQYHRLPLS |
| 30 nM | 3 of 3 | KSSQSVLYESRNMNRVA | WASTRES | QQYHRLPLS |
| 11 nM | 3 of 3 | KGSQSVLYEERNKNSVA | WASTRQS | QQYHRLPLS |
| 4.4 µM | 3 of 3 | KSSQSVKYRSRNKNSVA | AASTRES | QQYHRLPLS |
| 100 nM | 3 of 3 | KSSQSALYEDRNKNSVA | WASTRES | QQYHWLPLS |
| 14 µM | 2 of 3 | KSSQSVLNESRNKNSVT | WASTRES | QQYHKLPLS |
| nd | 0 of 3 | KSSQSVLYESRNKNVVA | WDSTRAS | QQYHRLPLS |
| 7.2 nM | 3 of 3 | KSSQSFLYESRNKNSVA | WTSTRFS | QQYHRLPLS |
| 15 µM | 1 of 3 | KSSQSVLYKSRNKNSTA | WASTRES | QQYHRLPLR |
| 17 µM | 3 of 3 | KVSQSVLYESWNKNSVA | WASPRES | QQYHRLPLS |
| nd | 0 of 3 | KSSQSVLYESRNINGVA | WAITRES | QQYHRLPLS |
| 23 nM | 3 of 3 | KSSQSVLYENRNKNSVA | WASARES | QQYHRLPLD |
| nd | 0 of 3 | KSSQSVLYESRNKNSVA | DASTGES | QQYHRLPLS |
| 4.7 nM | 3 of 3 | KSSQSVLYESRNKNSVA | WASTRES | QSYHRLKLF |
| 190 nM | 3 of 3 | KSSQRVLYESWNKNSVA | WASTRER | QQYHRLPLS |
| 3.2 µM | 1 of 3 | KSSQSVLYESQNKNSVA | WASTREA | QSYHRLPLS |
| 900 nM | 1 of 3 | KSSQTVLYESRNKNEVA | WASTRES | RQYHRLPLS |
| 6.5 µM | 1 of 3 | KSSQSVLYESRNKNSVA | WVSTEES | QQGHRLPLS |
| 11 nM | 3 of 3 | KSSQSVDYESRNKNSVA | WASTRES | QVYHRLPRS |
| 5.5 µM | 1 of 3 | KSSQSVLYESRNKMSVA | WMSTRES | QQIHRLPLS |
| nd | 0 of 3 | TSSQSVAYESRNKNSVA | WASTWES | QQYHRLPLS |
| 8.2 nM | 3 of 3 | RSSQSDLYESRNKNSVA | WASTRIS | QQYHRLPLS |
| 51 µM | 2 of 3 | KSSQSVLYESRNFNSVK | WASTRES | QPYHRLPLS |
| nd | 0 of 3 | KSSQSVLYESRNFQSVA | WASTRES | QQYHRLDLS |
| 14 nM | 3 of 3 | KSSLSVLYESRNKNSVA | TASTRES | QQYHRLYLS |
| 8.2 nM | 3 of 3 | KSSQSVLYESKIRNSVA | WASTRES | QQYHRLPLS |
| 70 nM | 3 of 3 | HSSQSVLYTSRNKNSVA | WAWTRES | QQYHRLPLS |
| nd | 0 of 3 | PSSQSVLYESRSKNSVA | WASTRES | QQYHRLCLS |
| nd | 0 of 3 | KSSQSVCYESRNKMWVA | WASTRES | QQYHRLPLS |
| 31 nM | 3 of 3 | KSSQDVYYESRSKNSVA | WASTRES | QQYHRLPLS |
| 980 nM | 3 of 3 | KSSQSVLYESRNANSVA | WASTRGS | QQPHRLPLS |
| nd | 0 of 3 | KSSQPNLYESRNKNSVY | WASTRES | QQYHRLPLS |
| 8.7 µM | 1 of 3 | KSSQSVLYSSRNKNSVA | WASTRES | AQEHRLPLS |
| nd | 0 of 3 | KSSQSVLYEIRNKNSRA | WASTRGS | QQYHRLPLS |

Repeated from above, the 6 best binders with a signal in all replicates:

| CDR-L1 | CDR-L2 | CDR-L3 | Kd (apparent) | seen in |
|---|---|---|---|---|
| KSSQSVTYESSNVNSVA | WASTRES | QQYHRLPLS | 2.3 nM | 3 of 3 |
| KSSQSVAYESRNKNSVA | WASTREA | QQYHRLPLS | 3.9 nM | 3 of 3 |
| KSSQSVLYESRNKNSVA | WASTRES | QSYHRLKLF | 4.7 nM | 3 of 3 |
| KSSQSFLYESRNKNSVA | WTSTRFS | QQYHRLPLS | 7.2 nM | 3 of 3 |
| RSSQSDLYESRNKNSVA | WASTRIS | QQYHRLPLS | 8.2 nM | 3 of 3 |
| KSSQSVLYESKIRNSVA | WASTRES | QQYHRLPLS | 8.2 nM | 3 of 3 |